In the experiment the target is T1, delta receptors (rat brain membrane preparations) (Rattus norvegicus, UniProt P33533).
T1 construct: Whole brains with cerebellum removed were homogenized in 100 volumes of Tris-HCl buffer; from tissue; host or cells: rat whole brain (cerebellum removed) membrane homogenate
The experiment can be described thus: Rat brain binding assay, displacement of [3H][D-Ala2, D-Leu5]enkephalin. (In general: Displacement assays read how much labelled ligand stays bound in the presence of the test substance.)

Chains of the proteins cited; added tags and fusions are not shown.
UniProt P33533, whole entry: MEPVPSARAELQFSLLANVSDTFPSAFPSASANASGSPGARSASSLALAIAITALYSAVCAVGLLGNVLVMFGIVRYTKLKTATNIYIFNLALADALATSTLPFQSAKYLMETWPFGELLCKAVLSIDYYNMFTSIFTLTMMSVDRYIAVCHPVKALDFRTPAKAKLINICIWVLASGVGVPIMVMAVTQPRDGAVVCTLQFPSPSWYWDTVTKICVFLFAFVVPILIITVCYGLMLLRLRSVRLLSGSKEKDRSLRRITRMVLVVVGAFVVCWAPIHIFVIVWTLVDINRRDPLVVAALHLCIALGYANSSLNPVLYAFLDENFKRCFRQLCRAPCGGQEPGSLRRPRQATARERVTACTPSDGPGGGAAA

As a reminder, the IC50 is the point on the concentration scale where inhibition reaches its midpoint.

The compound `CSCC[C@H](NC(=O)[C@H](Cc1ccccc1)NC(=O)CNC(=O)CNC(=O)[C@@H](N)Cc1ccc(O)cc1)C(=O)O` [[Met^5]Enkephalin, H2 N-Tyr-Gly-Gly-Phe-Met-OH] displayed an IC50 of 1.75 nM.

Source of the values: patent US4518711A, “Conformationally constrained cyclic enkephalin analogs with delta receptor specificity” (Gibson-Stephens Institute, priority 1983, dated 1985).
